# Tested on: norepinephrine (death upon administration of the α2 -agonist norepinephrine)
# Test: combined APO, TRY, NOR test in rats: norepinephrine (NOR)
# Type: in vivo
compound,measurement,value
CCCCCCCCCCCCOc1cccn2c(=O)c(CCN3CCC(c4noc5cc(F)ccc45)CC3)c(C)nc12 [Compound 3],NOR ED50,10 mg/kg

# Reference: patent publication US5688799A, “9-Hydroxy-pyrido[1,2-a]pyrimidin-4-one ether derivatives” (Janssen Pharmaceutica N.V., priority 1993, dated 1997)
